The series concerns L6. Nature of the series: Cytotoxicity against rat L6 cells assessed as decrease in cell viability after 72 hrs by resazurin dye based fluorescence analysis. The following applies: l6, 72 h. Background: Alamar Blue is a resazurin reagent that responds to reducing activity.

These results are taken from ChEMBL document CHEMBL3596151, “Elucidation of the in vitro and in vivo activities of bridged 1,2,4-trioxolanes, bridged 1,2,4,5-tetraoxanes, tricyclic monoperoxides, silyl peroxides, and hydroxylamine derivatives against Schistosoma mansoni” (Bioorg Med Chem, 2015).

Consider `C[C@]12C[C@](C)(OO1)OO2`, for which the Activity result is listed as “Non-toxic”.
